# Details: guinea pig, in vivo
substance,measurement,value
zinc gluconate,adverse health effects from inhalation of the mist,no guinea pigs have been found to exhibit any other adverse health effects
